# Data taken from patent US20250235453A1, “TRIAZOLOPYRIDAZINE COMPOUNDS USEFUL AS RAC1 INHIBITORS” (Revere Pharmaceuticals, priority 2021, published 2025).
# Target: Rac1 (Homo sapiens, UniProt P63000)
# Assay: Rac Activation AlphaScreen Assay (Rac1 AS)
# Details: dose leading to 50% disruption of complex
row,SMILES,IC50 [µM]
1,O=C(Nc1cccc(-c2ccc3nnc(-c4cccnc4)n3n2)c1)c1ccc(F)cc1,< 10
2,O=C(Nc1cccc(-c2ccc3nnc(-c4cccnc4)n3n2)c1)c1cccnc1,< 10
3,O=C(Nc1cccc(-c2ccc3nnc(-c4ccncc4)n3n2)c1)c1cccc(F)c1,< 10
4,O=Cc1ccc(-c2nnc3ccc(-c4cccc(NC(=O)c5ccc(F)cc5)c4)nn23)o1,< 10
5,O=C(Nc1cccc(-c2ccc3nnc(-c4cccnc4)n3n2)c1)c1cccc(Cl)c1,< 10
6,Cn1cncc1C(=O)Nc1cccc(-c2ccc3nnc(-c4cccnc4)n3n2)c1,< 10
7,CCOc1cc(C(=O)Nc2cccc(-c3ccc4nnc(-c5cccnc5)n4n3)c2)c(OCC)cn1,< 10
8,Cc1ccc(S(=O)(=O)Nc2ccc(-c3ccc4nnc(-c5ccccn5)n4n3)cc2)cc1,< 10
9,CCOc1ccc(C(=O)Nc2cccc(-c3ccc4nnc(-c5cccnc5)n4n3)c2)cc1,10 to 50
10,CCOc1ncccc1C(=O)Nc1cccc(-c2ccc3nnc(-c4cccnc4)n3n2)c1,< 10
11,O=C(Nc1cccc(-c2ccc3nnc(-c4cccnc4)n3n2)c1)c1ccccn1,< 10
12,CCOc1cc(C(=O)Nc2cccc(-c3ccc4nnc(-c5cccnc5)n4n3)c2)ccn1,< 10
13,O=C(Nc1cccc(-c2ccc3nnc(-c4ccc(CO)o4)n3n2)c1)c1ccc(F)cc1,< 10
14,O=C(Nc1cccc(-c2ccc3nnc(-c4cccnc4)n3n2)c1)c1ccccc1Br,< 10
15,O=C(Nc1cccc(-c2ccc3nnc(-c4cccnc4)n3n2)c1)c1cccc(F)c1,< 10
16,CCCCOc1ccc(S(=O)(=O)Nc2cccc(-c3ccc4nnc(-c5cccnc5)n4n3)c2)cc1,< 10

row,SMILES,IC50 [µM]
1,O=C(Nc1cccc(-c2ccc3nnc(-c4cccnc4)n3n2)c1)c1cncs1,< 10
2,Cc1ccccc1C(=O)Nc1ccc(-c2ccc3nnc(-c4ccccn4)n3n2)cc1,< 10
3,Cc1cc(C)cc(C(=O)Nc2cccc(-c3ccc4nnc(-c5cccnc5)n4n3)c2)c1,< 10
4,COc1cccc(C(=O)Nc2ccc(-c3ccc4nnc(C)n4n3)cc2)c1OC,> 100
5,CCOc1ncccc1C(=O)Nc1cccc(-c2ccc3nnc(C)n3n2)c1,< 10
6,O=C(CCCc1ccccc1)Nc1cccc(-c2ccc3nnc(-c4cccnc4)n3n2)c1,< 10
7,O=C(Nc1cccc(-c2ccc3nnc(-c4ccccn4)n3n2)c1)c1cccc(F)c1,< 10
8,COc1ccccc1C(=O)Nc1cccc(-c2ccc3nnc(-c4cccnc4)n3n2)c1,< 10
9,O=C(Nc1cccc(-c2ccc3nnc(-c4cccnc4)n3n2)c1)c1cccc2ccccc12,< 10
10,Cc1cccc(S(=O)(=O)Nc2ccc(-c3ccc4nnc(-c5ccccn5)n4n3)cc2)c1,< 10
11,COc1cccc(C(=O)Nc2cccc(-c3ccc4nnc(-c5cccnc5)n4n3)c2)c1,< 10
12,COc1ccc(C(=O)Nc2cccc(-c3ccc4nnc(-c5cccnc5)n4n3)c2)cc1,< 10
13,Cc1cccc(C(=O)Nc2cccc(-c3ccc4nnc(-c5cccnc5)n4n3)c2)c1,< 10
14,COc1cc(C(=O)Nc2cccc(-c3ccc4nnc(-c5cccnc5)n4n3)c2)ccc1F,< 10
15,O=C(Nc1cccc(-c2ccc3nnc(-c4cccnc4)n3n2)c1)c1ccc2ccccc2n1,10 to 50
16,O=C(Nc1cccc(-c2ccc3nnc(-c4cccnc4)n3n2)c1)c1cnco1,< 10
